Data published in paper PMC8067754, “Active Transport of Hepatotoxic Pyrrolizidine Alkaloids in HepaRG Cells” (International Journal of Molecular Sciences, 2021).
Values joined by “and” are separate entries in the source; they are usually repeats but may differ in a detail not shown here. Equal entries are not always repeated.

Assays:
HepaRG cells [1] = assay: Time-dependent PA depletion and PANO formation in cell culture medium of HepaRG cells at 37 °C and 4 °C (LC-MS/MS); settings: for PA content in cell culture medium, Mean [%]: HepaRG, 700 nM PA, percent of initial PA concentration
Description: (§1) In order to measure time-dependent depletion of PA and PANO content in cell culture medium, cells were seeded at a density of 0.2 × 10^6 cells per well in a 6-well plate and cultivated as described in Section 4.2. After four weeks of cultivation, cells were adapted to serum-free medium and medium substituted with insulin, transferrin, selenium (ITS) serum extender (Capricorn Scientific, Ebsdorfergrund, Germany) 48 h prior to PA incubation for optimal LC-MS/MS measurements. […] Samples were taken after 2 h, 4 h, 8 h and 24 h.
(§2) Briefly, chromatographic separation of PA/PANO analytes was achieved on a 50 × 2.1 mm Kinetex ™ 2.6 μm CoreShell EVO C18 100 Å column protected by a SecurityGuard ™ ULTRA EVO C 18 2.1 mm guard column (both Phenomenex, Aschaffenburg, Germany) at a flow rate of 0.4 mL/min on a Shimadzu high performance liquid chromatography (HPLC) apparatus (LC-20AB, SIL-20AC HT, CTO-20AC, CBM-20A, Duisburg, Germany) coupled to an API4000 triple quadrupole MS (Sciex, Darmstadt, Germany). The following MS parameters were used for measurements in positive electrospray ionisation (ESI+) mode: ionisation voltage 2500 V, nebuliser gas 50 psi, heating gas 50 psi, curtain gas 30 psi, temperature 600 °C, collision gas level 7. The substance specific parameters are summarized in Kaltner et al. 2019 [79].

HepaRG cells [2] = assay: PA and PANO content in cell culture medium of HepaRG cells upon pharmacological transporter inhibition (LC-MS/MS)
Description: (§3) In the case of TEA, cells were pre-incubated 24 h prior to PA treatment. The inhibitors were applied anew at PA incubation.
as §1, §2

HepaRG cells [3] = assay: Cell viability (MTT assay) of HepaRG cells with and without transporter inhibitors; settings: for viability [%], single replicates: repl. 1-6; for viability, MW [%]: mean of 6 replicates, no inhibitor; for Cell viability (MTT), percent of solvent control, Mean [%]: 24 h
Description: as §3
To analyze the cytotoxic effects of PAs on HepaRG cells with non-inhibited and inhibited hepatic transporters, the cells were seeded at a density of 9000 cells per well in the inner 60 wells of a 96-well plate and cultivated as described in Section 4.2. After four weeks of cultivation, FBS concentration in the cell culture medium was reduced to 2% for 48 h prior incubation. Thereby, inhibitory effects of peptide growth factors from the FBS on xenobiotic-metabolizing enzymes were minimized. […] The cells were pre-incubated with pharmacological inhibitors as described in Section 4.3. […] Cell viability was analyzed via the MTT test. 10 µl MTT reagent (5 mg/mL MTT dissolved in phosphate-buffered saline, PBS) was added per well and incubated for 1 h at 37 °C. The supernatant was discarded, and the violet formazan crystals dissolved in 130 µL desorption solution (0.7% sodium dodecyl sulfate in propan-2-ol). After shaking for 20 min (under protection from light), absorbance was measured on a TecanM200Pro spectrometer (Tecan Group Ltd., Männedorf, Switzerland) at a wavelength of 570 nm, along with a reference wavelength of 630 nm.

C/C=C(/C)C(=O)O[C@@H]1CCN2CC=C(COC(=O)[C@@](O)([C@H](C)O)C(C)(C)O)[C@H]12 [Echimidine, echimidine]
PA content in cell culture medium, Mean [%] (HepaRG cells [1]; 4 °C (cold), 0h): 105.779%
PA content in cell culture medium, Mean [%] (HepaRG cells [1]; 4 °C (cold), 2h): 103.801%
PA content in cell culture medium, Mean [%] (HepaRG cells [1]; 4 °C (cold), 8h): 101.511%
PA content in cell culture medium, Mean [%] (HepaRG cells [1]; 37 °C (warm), 0h): 103.451%
PA in medium, single replicates (repl.) (HepaRG cells [1]; cold, 2h): 92.2363% and 112.232%
PA in medium, single replicates (repl.) (HepaRG cells [1]; cold, 4h): 109.072%
PA in medium, single replicates (repl.) (HepaRG cells [1]; cold, 8h): 91.1786%
PA in medium, single replicates (repl.) (HepaRG cells [1]; cold, 24h): 112.994%
PA in medium, single replicates (repl.) (HepaRG cells [1]; warm, 2h): 70.4%

C/C=C(/C)C(=O)O[C@H]1CCN2CC=C(COC(=O)[C@@](O)([C@@H](C)O)C(C)(C)O)[C@H]12 [Heliosupine, heliosupine]
PA content in cell culture medium, Mean [%] (HepaRG cells [1]; 4 °C (cold), 0h): 92.2048%
PA in medium, Mean [%] (HepaRG cells [1]; cold, 2h): 101.095%
PA in medium, single replicates (repl.) (HepaRG cells [1]; cold, 2h): 111.475%
PA in medium, single replicates (repl.) (HepaRG cells [1]; cold, 8h): 97.5566% and 104.353%
PA in medium, single replicates (repl.) (HepaRG cells [1]; cold, 24h): 85.8144%

C/C=C1/C[C@@H](C)[C@@](C)(O)C(=O)OCC2=CCN3CC[C@@H](OC1=O)[C@@H]23 [Senecionine, senecionine]
PA in medium, single replicates (repl.) (HepaRG cells [2]; plus CsA, 4h): 76.2448%
PA in medium, single replicates (repl.) (HepaRG cells [2]; plus CsA, 8h): 87.9321%
PA in medium, Mean [%] (HepaRG cells [2]; plus Qu, 4h): 94.4839%
PA in medium, single replicates (repl.) (HepaRG cells [2]; plus Qu, 4h): 97.1469%
PA in medium, Mean [%] (HepaRG cells [2]; plus Qu, 8h): 83.2319%
PA in medium, Mean [%] (HepaRG cells [2]; plus Qu, 24h): 67.4875%
PA in medium, single replicates (repl.) (HepaRG cells [2]; plus TEA, 8h): 68.4746%
viability [%], single replicates (HepaRG cells [3]; 50 µM): 64.2099%

C/C=C1/C[C@@H](C)[C@@](C)(O)C(=O)OC/C2=C/CN(C)CC[C@@H](OC1=O)C2=O [Senkirkine, senkirkine]
PA content in cell culture medium, Mean [%] (HepaRG cells [1]; 4 °C (cold), 0h): 116.557%
PA content in cell culture medium, Mean [%] (HepaRG cells [1]; 4 °C (cold), 2h): 117.334%
PA content in cell culture medium, Mean [%] (HepaRG cells [1]; 4 °C (cold), 4h): 113.535%
PA content in cell culture medium, Mean [%] (HepaRG cells [1]; 37 °C (warm), 0h): 111.857%
PA content in cell culture medium, Mean [%] (HepaRG cells [1]; 37 °C (warm), 2h): 108.399%
PA content in cell culture medium, Mean [%] (HepaRG cells [1]; 37 °C (warm), 4h): 103.326%
PA content in cell culture medium, Mean [%] (HepaRG cells [1]; 37 °C (warm), 8h): 88.0948%
PA in medium, Mean [%] (HepaRG cells [1]; cold, 2h): 100.631%
PA in medium, single replicates (repl.) (HepaRG cells [1]; cold, 2h): 97.2674% and 107.717%
PA in medium, Mean [%] (HepaRG cells [1]; cold, 4h): 97.2946%
PA in medium, single replicates (repl.) (HepaRG cells [1]; cold, 4h): 105.144%
PA in medium, single replicates (repl.) (HepaRG cells [1]; cold, 8h): 93.1897% and 109.296%
PA in medium, single replicates (repl.) (HepaRG cells [1]; cold, 24h): 81.5267% and 97.5949%
PA in medium, single replicates (repl.) (HepaRG cells [1]; warm, 2h): 107.805%
PA in medium, single replicates (repl.) (HepaRG cells [1]; warm, 4h): 102.584%

retrorsine
PA content in cell culture medium, Mean [%] (HepaRG cells [1]; 4 °C (cold), 0h): 107.862%
PA content in cell culture medium, Mean [%] (HepaRG cells [1]; 4 °C (cold), 2h): 106.185%
PA content in cell culture medium, Mean [%] (HepaRG cells [1]; 4 °C (cold), 4h): 105.63%
PA content in cell culture medium, Mean [%] (HepaRG cells [1]; 4 °C (cold), 8h): 105.571%
PA content in cell culture medium, Mean [%] (HepaRG cells [1]; 4 °C (cold), 24h): 102.674%
PA content in cell culture medium, Mean [%] (HepaRG cells [1]; 37 °C (warm), 0h): 107.752%
PA content in cell culture medium, Mean [%] (HepaRG cells [1]; 37 °C (warm), 2h): 97.8391%
PA content in cell culture medium, Mean [%] (HepaRG cells [1]; 37 °C (warm), 4h): 81.6972%
PA content in cell culture medium, Mean [%] (HepaRG cells [1]; 37 °C (warm), 8h): 63.1656%
PA content in cell culture medium, Mean [%] (HepaRG cells [1]; 37 °C (warm), 24h): 14.6683%
PA in medium, Mean [%] (HepaRG cells [1]; cold, 0h): 100%
PA in medium, single replicates (repl.) (HepaRG cells [1]; cold, 0h): 100%
PA in medium, Mean [%] (HepaRG cells [1]; cold, 2h): 98.0469%
PA in medium, single replicates (repl.) (HepaRG cells [1]; cold, 2h): 98.2886% and 97.0686% and 88.9541% and 107.876%
PA in medium, Mean [%] (HepaRG cells [1]; cold, 4h): 97.5769%
PA in medium, single replicates (repl.) (HepaRG cells [1]; cold, 4h): 98.6132% and 96.5055% and 87.5599% and 107.629%
PA in medium, Mean [%] (HepaRG cells [1]; cold, 8h): 97.2641%
PA in medium, single replicates (repl.) (HepaRG cells [1]; cold, 8h): 93.1512% and 99.1094% and 90.8717% and 105.924%
PA in medium, Mean [%] (HepaRG cells [1]; cold, 24h): 94.9785%
PA in medium, single replicates (repl.) (HepaRG cells [1]; cold, 24h): 97.9583% and 91.997% and 85.7801% and 104.179%
PA in medium, Mean [%] (HepaRG cells [1]; warm, 0h): 100%
PA in medium, single replicates (repl.) (HepaRG cells [1]; warm, 0h): 100%
PA in medium, Mean [%] (HepaRG cells [1]; warm, 2h): 89.9282%
PA in medium, single replicates (repl.) (HepaRG cells [1]; warm, 2h): 83.3711% and 89.5597% and 88.3434% and 98.4386%
PA in medium, Mean [%] (HepaRG cells [1]; warm, 4h): 75.0081%
PA in medium, single replicates (repl.) (HepaRG cells [1]; warm, 4h): 72.1224% and 76.5005% and 66.1875% and 85.2218%
PA in medium, Mean [%] (HepaRG cells [1]; warm, 8h): 58.1301%
PA in medium, single replicates (repl.) (HepaRG cells [1]; warm, 8h): 56.4322% and 60.1951% and 51.5042% and 64.3886%
PA in medium, Mean [%] (HepaRG cells [1]; warm, 24h): 13.4736%
PA in medium, single replicates (repl.) (HepaRG cells [1]; warm, 24h): 14.2525% and 15.0173% and 8.466% and 16.1583%
viability, MW [%] (HepaRG cells [3]; 1 µM): 93.8702%
viability [%], single replicates (HepaRG cells [3]; 1 µM): 82.0136% and 100.915% and 94.7011% and 95.3961% and 96.3108% and 93.8843%
viability, MW [%] (HepaRG cells [3]; 10 µM): 82.9275%
viability [%], single replicates (HepaRG cells [3]; 10 µM): 71.3311% and 91.125% and 83.07% and 86.7773% and 87.4715% and 77.7902%
viability, MW [%] (HepaRG cells [3]; 50 µM): 69.717%
viability [%], single replicates (HepaRG cells [3]; 50 µM): 52.6347% and 76.7434% and 75.5692% and 73.69% and 78.2744% and 61.3901%
viability, MW [%] (HepaRG cells [3]; 100 µM): 62.1756%
viability [%], single replicates (HepaRG cells [3]; 100 µM): 45.221% and 72.9792% and 68.1256% and 69.8136% and 64.1128% and 52.8012%
viability, MW [%] (HepaRG cells [3]; 250 µM): 54.7854%
viability [%], single replicates (HepaRG cells [3]; 250 µM): 40.1% and 64.221% and 59.0928% and 63.059% and 60.7782% and 41.4616%
cytotoxicity of the applied concentration (HepaRG cells [3]; HepaRG, 2.5 µM, Figure S2): not cytotoxic
Cell viability (MTT), percent of solvent control, Mean [%] (HepaRG cells [3]; HepaRG, 250 µM PA + CsA (10 µM, 1 h pre-incubation)): 82%
Cell viability (MTT), percent of solvent control, Mean [%] (HepaRG cells [3]; HepaRG, 250 µM PA + CsA (10 µM, 1 h pre-incubation), listed as Re): 82.0505%
Cell viability (MTT), percent of solvent control, Mean [%] (HepaRG cells [3]; HepaRG, 250 µM PA + Ko143 (5 µM, 1 h pre-incubation)): 57.6641%
Cell viability (MTT), percent of solvent control, Mean [%] (HepaRG cells [3]; HepaRG, 250 µM PA + MK571 (50 µM, 1 h pre-incubation)): 72.349%
Cell viability (MTT), percent of solvent control, Mean [%] (HepaRG cells [3]; HepaRG, 250 µM PA + Qu (100 µM, 1 h pre-incubation)): 100%
Cell viability (MTT), percent of solvent control, Mean [%] (HepaRG cells [3]; HepaRG, 250 µM PA + Qu (100 µM, 1 h pre-incubation), listed as Re): 100.85%
Cell viability (MTT), percent of solvent control, Mean [%] (HepaRG cells [3]; HepaRG, 250 µM PA + TEA (3 mM, 24 h pre-incubation)): 82%
Cell viability (MTT), percent of solvent control, Mean [%] (HepaRG cells [3]; HepaRG, 250 µM PA + TEA (3 mM, 24 h pre-incubation), listed as Re): 82.5037%
Cell viability (MTT), percent of solvent control, Mean [%] (HepaRG cells [3]; HepaRG, 250 µM PA only): 55%
Cell viability (MTT), percent of solvent control, Mean [%] (HepaRG cells [3]; HepaRG, 250 µM PA only, listed as Re): 55.309%
